Patent US8815934B2 (dated 2014)

Protein sequences, listed by entry. Tags and fused reporters are not part of them.
UniProt P03372, whole entry: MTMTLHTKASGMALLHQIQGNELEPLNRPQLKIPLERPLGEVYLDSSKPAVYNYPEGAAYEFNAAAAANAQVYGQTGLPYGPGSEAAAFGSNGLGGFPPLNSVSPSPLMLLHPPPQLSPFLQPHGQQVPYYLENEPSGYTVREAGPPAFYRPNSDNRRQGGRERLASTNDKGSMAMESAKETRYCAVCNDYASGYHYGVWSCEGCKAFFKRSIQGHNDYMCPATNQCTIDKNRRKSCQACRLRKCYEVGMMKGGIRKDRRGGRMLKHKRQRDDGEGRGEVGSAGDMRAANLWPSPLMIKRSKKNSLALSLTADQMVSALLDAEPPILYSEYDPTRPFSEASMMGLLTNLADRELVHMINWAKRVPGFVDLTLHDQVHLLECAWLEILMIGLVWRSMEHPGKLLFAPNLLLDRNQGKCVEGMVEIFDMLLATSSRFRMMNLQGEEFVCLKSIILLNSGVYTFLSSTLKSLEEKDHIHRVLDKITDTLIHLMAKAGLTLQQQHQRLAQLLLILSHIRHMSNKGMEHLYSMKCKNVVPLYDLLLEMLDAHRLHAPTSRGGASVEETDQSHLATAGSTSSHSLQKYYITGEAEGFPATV

Biological target: estrogen receptor (Homo sapiens (Human), UniProt P03372)
Assay: 2×VIT ERE infection luciferase assay

## COc1ccc(-c2c(C)c3cc(OC)ccc3n2Cc2ccc(OCCN3CCCCCC3)cc2)cc1 [No. 91, 1-[4-(2-Azepan-1-yl-ethoxy)-benzyl]-5-methoxy-2-(4-methoxy-phenyl)-3-methyl-1H-indole]
1 uM compound + 1 nM 17β-estradiol (estrogen antagonism)
  Infection Luciferase Activity, 1 uM + 17β estradiol: 56%
1 uM compound alone, percentage of activity as compared to 17β-estradiol
  Infection Luciferase Activity, 1 uM: −3%
